The text below walks through data of patent publication US20160250277A1, “[…] OPIOID RECEPTOR AGONISTS FOR PREVENTING, INHIBITING OR TREATING NAUSEA AND VOMITING” (CARA THERAPEUTICS, INC., priority 2013, published 2016).

Data set [1] has as its system patients following bunionectomy surgery. Briefly: Phase 2 clinical trial CLIN2003, bunionectomy.
Data set [2] deals with patients undergoing laparoscopic hysterectomy. Briefly: Phase 2 clinical trial CLIN2002, laparoscopic hysterectomy. The following applies: 0.04 mg/kg I.V. pre- and/or post-operatively.
For a further data set, the system named is human subjects. The data set can be described thus: Phase 1 and Phase 2 clinical trials, overall safety. The following applies: over 300 human subjects; intravenous infusion, short bolus or oral capsule.

Take `CC(C)C[C@@H](NC(=O)[C@@H](Cc1ccccc1)NC(=O)[C@H](N)Cc1ccccc1)C(=O)N[C@H](CCCCN)C(=O)N1CCC(N)(C(=O)O)CC1` [CR845, D-Phe-D-Phe-D-Leu-D-Lys-[ω(4-aminopiperidine-4-carboxylic acid)]-OH]: in data set [1] (48 hour period), the “mean fentanyl use vs placebo” value is recorded as “no difference in mean fentanyl use”. In addition, the safety and tolerability entry in data set [1] (repeated I.V. 0.005 mg/kg) is “safe and generally well tolerated”; in data set [2], “safe and generally well tolerated”; in the data set on human subjects it was “safe and well tolerated”.
